# Experiment: Aerosol particle size distribution by laser diffraction
# Type: physicochemical
# Settings: solutions in WFI 40-120 mg/ml, fill 2-4 ml
substance,measurement,value
gentamicin sulfate,volume median diameter of aerosol,2-3 μm

# Source: patent publication US9351929B2, “Antibiotic formulations, unit doses, kits, and methods” (Bayer Intellectual Property GMBH, priority 2005, dated 2016)
